According to paper PMC8062000, “High-throughput screening of the ReFRAME, Pandemic Box, and COVID Box drug repurposing libraries against SARS-CoV-2 nsp15 endoribonuclease to identify small-molecule inhibitors of viral activity” (PLoS ONE, 2021):

Biological target: SARS-CoV-2 nsp15 endoribonuclease (endoU) (Severe acute respiratory syndrome coronavirus 2, UniProt P0DTD1)
Test: biochemical
Conditions: read-out: 1° FRET Assay % inhibition

**Q.** With `COCCn1c2c([n+](Cc3cnccn3)c1C)C(=O)c1ccccc1C2=O` [Sepantronium bromide] as the molecule, how does the inhibition at 10 µM read?
**A.** 50%
